# Experimental data taken from ChEMBL document CHEMBL3886191, “Optically active pyrazolylaminoquinazoline, and pharmaceutical compositions and methods of use thereof” (2016).
# The chains behind the UniProt entries cited, without tags or fusion partners.
# UniProt P0DMS8, whole entry: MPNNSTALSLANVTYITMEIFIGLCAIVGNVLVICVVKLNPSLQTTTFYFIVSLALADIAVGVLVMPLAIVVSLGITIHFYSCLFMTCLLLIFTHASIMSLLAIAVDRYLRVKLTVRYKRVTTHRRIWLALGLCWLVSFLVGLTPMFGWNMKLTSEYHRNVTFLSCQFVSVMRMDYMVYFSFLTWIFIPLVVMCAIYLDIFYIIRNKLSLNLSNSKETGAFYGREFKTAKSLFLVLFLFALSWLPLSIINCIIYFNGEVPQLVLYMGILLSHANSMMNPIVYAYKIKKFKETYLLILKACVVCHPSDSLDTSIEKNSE
# Target: Adenosine receptor A3 (Homo sapiens, UniProt P0DMS8)
# Experiment: Incubations of a range of concentration of each compound were carried out in duplicates for 1 h at 25° C. in 25 mM HEPES, pH 7.4, 5 mM MgCl2, 1 mM CaCl2, 0.1% BSA, in the presence of 0.5 nM [125I] AB-MECA. Non-specific binding was determined in the presence of 1 uM IB-MECA.
# Assay type: cell-based, CHO-K1
compound,measurement,value
Cc1cc(Nc2nc([C@@H](O)c3ccc(F)cc3)nc3ccccc23)n[nH]1,Kd,1.42 nM
Cc1cc(Nc2nc([C@H](O)c3ccc(F)cc3)nc3ccccc23)n[nH]1,Kd,28.5 nM
